One compound from ChEMBL document CHEMBL1153420, “Discovery of novel 1-azoniabicyclo[2.2.2]octane muscarinic acetylcholine receptor antagonists” (J Med Chem, 2009) can be followed below.

The chains behind the UniProt entries cited, without tags or fusion partners.
UniProt P20309, whole entry: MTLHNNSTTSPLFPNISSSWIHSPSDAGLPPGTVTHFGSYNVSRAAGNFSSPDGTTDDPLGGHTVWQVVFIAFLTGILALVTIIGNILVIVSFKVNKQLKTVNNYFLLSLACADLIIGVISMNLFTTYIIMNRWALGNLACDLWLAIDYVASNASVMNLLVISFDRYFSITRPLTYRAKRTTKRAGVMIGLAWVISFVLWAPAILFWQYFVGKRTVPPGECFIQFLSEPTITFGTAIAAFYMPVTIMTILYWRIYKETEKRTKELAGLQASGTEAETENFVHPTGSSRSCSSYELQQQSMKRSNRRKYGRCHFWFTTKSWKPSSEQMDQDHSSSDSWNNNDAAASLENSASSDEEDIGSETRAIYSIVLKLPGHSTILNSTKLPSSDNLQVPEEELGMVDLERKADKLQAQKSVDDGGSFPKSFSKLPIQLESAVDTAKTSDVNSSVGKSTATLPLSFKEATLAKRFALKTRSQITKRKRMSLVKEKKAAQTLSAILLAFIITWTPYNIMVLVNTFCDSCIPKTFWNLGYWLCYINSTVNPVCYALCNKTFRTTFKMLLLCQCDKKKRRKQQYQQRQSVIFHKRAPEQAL

Structures are written as SMILES.

Assay [1] deals with T1, Muscarinic acetylcholine receptor M3 (Homo sapiens, UniProt P20309). The experiment in a line: Antagonist activity at human muscarinic M3 receptor assessed as inhibition of carbachol-induced bronchus contraction. The format is functional. The settings on record: read-out: pA2 (converted). The essentials: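 Human bronchial strips from primary, secondary or tertiary airways obtained at autopsy, mounted on force-displacement transducers in organ baths; preincubated 2 h with compound, then challenged with increasing carbachol concentrations; potency expressed against carbachol-induced contraction.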

Assay [2] has as its target T1, Muscarinic acetylcholine receptor M3. As to the kind of experiment: Antagonist activity at human cloned muscarinic M3 receptor expressed in CHO cells assessed as inhibition of acetylcholine-induced calcium mobilization by FLIPR assay. The format is functional, cell-based.
Assay [3] shares this target. The experiment in a line: Displacement of [3H]N-methyl scopolamine from human cloned muscarinic M3 receptor expressed in CHO cells coexpressing Gqi5 by scintillation proximity assay. The format is cell-based. In short, it runs like this:
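Scintillation proximity assay on membranes from CHO cells expressing human M1, M2 or M3 receptors, competing against 0.5 nM [3H]-N-methyl scopolamine; Ki reported as mean of three independent assays.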
A general note: In a radioligand displacement assay an active substance lowers the binding of a labelled ligand.

Assay [4] has the same target. The experiment in a line: Antagonist activity at human cloned muscarinic M3 receptor expressed in CHO cells assessed as inhibition of acetylcholine-induced calcium mobilization by single concentration kinetic based-FLIPR assay. The format is functional, cell-based. The note with it: read-out: pA2 (converted). In short, it runs like this:
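Human M3 receptor expressed in CHO cells; compounds tested against a single acetylcholine concentration with calcium mobilization read by FLIPR to give IC50; values are means of two or more independent assays.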
For orientation: Calcium assays in cells follow changes in intracellular calcium, usually with a dye or a luminescent sensor.

For `OC(c1ccccc1)(c1ccccc1)C12CC[N+](CCOCc3ccccc3)(CC1)CC2.[Br-]` [UMECLIDINIUM BROMIDE], the Kb is 316 pM in assay [1] and 31.6 pM in assay [4]. The IC50 (in general, the concentration at which inhibition is half-maximal) in assay [2] is less than 10000 pM. In addition, the inhibition constant (Ki) (in general, the dissociation constant of the complex between target and ligand, obtained from inhibition or displacement) in assay [3] was 60 pM.
